Patent US11654094B2, “Composition comprising benzoic acid amide compound and cyclodextrin solubilizing agent” (AMOREPACIFIC CORPORATION, priority 2017, dated 2023)

Experiment: Solubility of DBAB at various weight ratios of HP-β-CD and γ-CD, total CD 0.5%
Conditions: 0.2% by weight of each of HP-β-CD and γ-CD, test method of Table 5

effect on solubility of DBAB of adding 0.1% by weight of a further cyclodextrin: did not improve the solubility
Substance: hydroxypropyl-γ-cyclodextrin [HPγ]
